Measured values taken from PubChem BioAssay AID624296 (National Center for Advancing Translational Sciences (NCATS), 2012).
The list shows a part of the results, in another mix than the full data. Inconclusive results are not listed. Some salts or complexes appear as unconnected parts, following the source record. The source made the active and inactive calls. Calls come from the whole dose curve; as a rule, active = well fitted activation curve with a large enough effect; inconclusive = small, poorly fitted or top-dose-only effect; inactive = no such curve, though single readings can be large or run the other way.

Experiment: A quantitative high throughput screen for small molecules that induce DNA re-replication in MCF 10a normal breast cells. Note: % of control where 0% means no effect; nearly all actives have a fitted effect of over 50% in size.
Conditions: MCF 10A DNA re-replication, Hoechst nuclear intensity, 48 h; at 46.1 µM (top of the series) unless noted

SMILES | activity, positive = re-replication
Cc1ccc(NC2(C#N)CCN(Cc3ccccc3)CC2)cc1 | inactive: 1.15%
Cc1ccc(C(=O)NCC2(N3CCCCC3)CCCCC2)o1 | inactive: -0.166%
Fc1ccccc1NC1CCN(Cc2ccccc2)CC1 | inactive: 23.8%
COc1cc(OC)cc(C(=O)NCC2(N3CCCCC3)CCCCC2)c1 | inactive: -0.408%
CC(=O)N(c1ccccc1)C1CCNCC1 | inactive: -16.4%
O=C(NCC1(N2CCCCC2)CCCCC1)c1ccco1 | inactive: 17.9%
CN(C)c1ccc(C(=O)NCC2(N3CCCCC3)CCCCC2)cc1 | inactive: 3.63%
Cc1ccccc1NC1(C#N)CCN(Cc2ccccc2)CC1 | inactive: -2.39%
CCCOc1ccc(C(=O)NCC2(N(C)C)CCCCC2)cc1 | inactive: 16.7%
CC(C)(C)OC(=O)N1CCC(Nc2ccccc2)CC1 | inactive: -1.09%
O=C(O)C1(Nc2ccccc2)CCN(Cc2ccccc2)CC1 | inactive: -1.01%
CCOc1ncccc1C(=O)NCC1(N2CCOCC2)CCCCC1 | inactive: 6.99%
CN1CCC(Nc2ccc(F)c(Cl)c2)CC1 | inactive: 6.12%
CN1CCC(Nc2ccc(Cl)cc2)CC1 | inactive: 0.911%
CCC(CO)(C(=O)OC1CN2CCC1CC2)c1ccccc1 (configuration not stated) | inactive: 16.7%
COc1cc(OC)cc(C(=O)NCC2(N3CCOCC3)CCCCC2)c1 | inactive: 2.82% [at 9.22 µM]
COc1cccc(C(=O)N(c2cc(C)cc(C)c2)C2CCN(C(=O)OC(C)(C)C)CC2)c1 | inactive: 8.4%
COc1ccc(C(=O)NCC2(N3CCOCC3)CCCCC2)cc1OC | inactive: -0.395%
O=C(NCC1(N2CCOCC2)CCCCC1)c1cc(Br)ccc1Cl | inactive: -2.12%
COc1cc(C(=O)NCC2(N3CCOCC3)CCCCC2)cc(OC)c1C | inactive: 4.35%
O=C(OC1CN2CCC1CC2)C1c2ccccc2C=Cc2ccccc21 (configuration not stated) | inactive: 8.95%
O=C(O)c1cccc(Nc2c([N+](=O)[O-])cc([N+](=O)[O-])cc2[N+](=O)[O-])c1 | inactive: 8.76%
N/C(=N\O)c1c(N)no[n+]1[O-] | inactive: -0.333%
CCOC(=O)N1CCC(Nc2ccc(C)cc2)CC1 | inactive: -0.205%

SMILES | activity, positive = re-replication
CCOC(=O)C(CC)C1=NC(C)(C)Cc2ccccc21.O=[N+]([O-])c1cc([N+](=O)[O-])c(O)c([N+](=O)[O-])c1 (configuration not stated) | inactive: 4.42%
CC(C)(C)OC(=O)N1CCC(N(C(=O)c2ccccc2)c2ccc(Cl)cc2)CC1 | inactive: 23%
N#Cc1ccc(C(=O)NCC2(N3CCCCC3)CCCCC2)cc1 | inactive: 5.14%
c1ccc(CN2CCC(Nc3ccccc3)CC2)cc1 | inactive: 5.02%
CCCN1CCC(Nc2cc(OC)cc(OC)c2)CC1 | inactive: -3.3%
CN(C)C1(CNC(=O)c2cccc(C#N)c2)CCCCC1 | inactive: -14.1%
CSc1ccc(C(=O)NCC2(N3CCOCC3)CCCCC2)cc1 | inactive: 3.76%
O=C(NCC1(N2CCCCC2)CCCCC1)c1cccc([N+](=O)[O-])c1 | inactive: -11.5%
CCN1CCC(Nc2ccc(Cl)cc2)CC1 | inactive: 0.067%
N#CC1(Nc2ccccc2)CCN(CCc2ccccc2)CC1 | inactive: -2.32%
O=C(NCC1(N2CCCCC2)CCCCC1)c1ccc(OC(F)F)cc1 | inactive: -0.984%
CN1CCN(CCOC(=O)C(O)(c2ccccc2)c2ccccc2)CC1 | inactive: -1.53%
COc1ccc(NC2CCN(C(=O)OC(C)(C)C)CC2)cc1 | inactive: 0.51%
COc1cc(C(=O)NCC2(N3CCCCC3)CCCCC2)ccc1OC(F)F | inactive: -9.52%
O=C(NCC1(N2CCOCC2)CCCCC1)c1cc(=O)[nH]c2ccccc12 | inactive: -1.39%
O=C(NCC1(N2CCCCC2)CCCCC1)c1cccc(C(F)(F)F)c1 | inactive: 6.3%
COc1cc(OC)c(C(=O)NCC2(N(C)C)CCCCC2)cc1OC | inactive: 16.9%
O=C(NCC1(N2CCOCC2)CCCCC1)c1cc(F)c(F)cc1Cl | inactive: -2.56%
COc1ccc(CN(CCCl)CCCl)cc1Cl | inactive: 1.03%
O=[N+]([O-])c1cc([N+](=O)[O-])c(OC2CCCCC2O)c([N+](=O)[O-])c1 (configuration not stated) | inactive: 0.861%
CN(C)c1cccc(C(=O)NCC2(N3CCCCC3)CCCCC2)c1 | inactive: -5.37%
CC(C)c1ccc(NC2CCN(C(=O)OC(C)(C)C)CC2)cc1 | inactive: 10%
CCCOc1ccc(C(=O)NCC2(N(C)C)CCCCC2)cc1OC | inactive: 17.5%
COc1ccc2c(c1O)-c1c(O)c(OC)cc3c1[C@H](C2)[N+](C)(C)CC3.O=[N+]([O-])c1cc([N+](=O)[O-])c([O-])c([N+](=O)[O-])c1[O-] | inactive: -9.89%

SMILES | activity, positive = re-replication
CN1CCC(Nc2cccc(F)c2)CC1 | inactive: 1.01%
O=C(OC1CN2CCC1CC2)c1ccc([N+](=O)[O-])cc1 (configuration not stated) | inactive: 22.2%
CSc1ccccc1C(=O)NCC1(N2CCCCC2)CCCCC1 | inactive: 12.5%
Cc1cccc(NC2(C#N)CCN(Cc3ccccc3)CC2)c1 | inactive: 0.944%
O=C(NCC1(N2CCCCC2)CCCCC1)c1ccc(=O)[nH]c1 | inactive: -2.63%
O=C(NCC1(N2CCCCC2)CCCCC1)c1cccs1 | inactive: 8.58%
COc1ccc(C(=O)NCC2(N3CCCCC3)CCCCC2)c(OC)c1OC | inactive: 0.0342%
CC(C)(C)OC(=O)N1CCC(N(C(=O)c2ccccc2)c2ccc(F)cc2)CC1 | inactive: -2.9%
CCOC(=O)N1CCC(Nc2ccc(OC)cc2)CC1 | inactive: 0.936%
O=C(OC1CN2CCC1CC2)C1c2ccccc2Oc2ccccc21 (configuration not stated) | inactive: 2.43%
N#CC1(Nc2ccccc2)CCN(Cc2ccccc2)CC1 | inactive: -1.05%
O=C(NCC1(N2CCCCC2)CCCCC1)c1ccc(Cl)s1 | inactive: -2.15%
O=C1C(O)=C([N+](=O)[O-])C(=O)C(O)=C1[N+](=O)[O-] | inactive: -20.1%
COc1ccc(Cl)cc1C(=O)NCC1(N2CCOCC2)CCCCC1 | inactive: 13%
O=C(NCC1(N2CCOCC2)CCCCC1)c1cc2ccccc2o1 | inactive: -0.39%
O=C(NCC1(N2CCCCC2)CCCCC1)c1ccc(Cl)nc1 | inactive: -7.69%
O=C(NCC1(N2CCCCC2)CCCCC1)c1ccc(F)cc1 | inactive: 6.84%
O=P1(N(CCCl)CCCl)SCCCS1 | inactive: -1.39%
CCCCOc1ccc(C(=O)NCC2(N3CCOCC3)CCCCC2)cc1 | inactive: 12.9%
CCOC(=O)N1CCC(Nc2ccc(F)cc2)CC1 | inactive: -3.02%
CCOc1ccc(C)cc1CN(CCCl)CCCl | inactive: 1.23%
O=C1CCN(Cc2ccccc2)CC1 | inactive: 2.34%
COc1cc(C(=O)NCC2(N(C)C)CCCCC2)ccc1OC(F)F | inactive: 14%
CCOC(=O)N1CCC(Nc2cccc(C)c2)CC1 | inactive: 2.76%
